{
  "source": "patent US20190125869A1",
  "about": "“PULSED ELECTROMAGNETIC THERAPY FOR DIRECTING AGENTS TO CANCER CELLS” (MMTC, Inc., priority 2017, published 2019)",
  "key": {"[1]": {"system": "AT2 prostatic tumor of rats", "details": "20 mg in 0.5 ml saline into the tail vein"}, "normal muscle tissue": {"system": "normal muscle tissue", "details": "normal muscle tissue exposed to microwave pulsing"}},
  "note": "Where two headings read alike, the source gives them in different places.",
  "data": [
    {"substance": "fluorescin isothiocyanate Dextran", "values": [
      {"measurement": "uptake of Dextran by the cells of the tumors", "setting": "[1]; non-pulsed contralateral tumors", "result": "almost no uptake"},
      {"measurement": "uptake of Dextran by the cells of the tumors", "setting": "[1]; tumors pulsed with microwaves (2.82 GHz, 30 minutes), phase microscope/ultraviolet light", "result": "significant uptake"},
      {"measurement": "uptake of Dextran by the cells of the tumors", "setting": "[1]; tumors pulsed with microwaves (2.82 GHz, 30 minutes), phase microscope/ultraviolet light, listed as fluorescin Dextran", "result": "sharply increase the uptake"},
      {"measurement": "uptake of Dextran by muscle (healthy) cells", "setting": "normal muscle tissue", "result": "no significant uptake"}
    ]}
  ]
}
